In paper PMC7599001, “The SNAP-tag technology revised: an effective chemo-enzymatic approach by using a universal azide-based substrate” (Journal of Enzyme Inhibition and Medicinal Chemistry, 2020):

Molecular target: T1, SNAP-tag® (Homo sapiens, UniProt P16455, A127T/C150S/C62A/G131K/G132T/K125A/M134L/N157G/R128A/R135S/S159E)
T1 sequence (P16455 1-182 C62A/K125A/A127T/R128A/G131K/G132T/M134L/R135S/C150S/N157G/S159E): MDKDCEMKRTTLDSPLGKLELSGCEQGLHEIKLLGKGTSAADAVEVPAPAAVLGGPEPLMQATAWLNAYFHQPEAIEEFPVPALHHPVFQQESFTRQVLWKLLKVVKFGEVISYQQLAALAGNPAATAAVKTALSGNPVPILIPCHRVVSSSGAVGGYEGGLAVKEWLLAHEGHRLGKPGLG
Test: AGTs' substrate assay by competitive inhibition method with SVG (gel-imaging)
Format: biochemical
Conditions: SVG 5 µM, enzyme 5 µM, 30 min at 25 °C
Method: Competitive inhibition assay was performed as described[23]^,[38]. Briefly, by using a fixed concentration of the fluorescent SVG (5 µM) and enzymes (5 µM), an increasing amount of guanine-derivatives (0–2 mM) was added to the mixtures. The reactions were incubated for 30 min at 25 °C and 50 °C for SNAP-tag® and H^5 respectively, and loaded on SDS-PAGE. Subsequently, fluorescent bands were measured by gel-imaging on a VersaDoc 4000™ system (Bio-Rad), by applying a blue LED/530 bandpass filter. […]
We evaluated the activity of SNAP-tag® and H^5 enzymes on BGN3 and BGSN3 by the afore-mentioned IC50 method (Figure S5(A,B)) and other O^6-guanine-derivatives (Table 1).
Because most of them are non-fluorescent compounds, we performed an AGTs’ competitive inhibition assay by using the fluorescein-derivative SNAP-Vista® Green as substrate (SVG), as previously described[22–24]^,[45]. […] The presence of increasing amounts of a non-fluorescent competitor in the reaction causes a decrease of the fluorescent signals, which can be measured and plotted for the IC50 values determination[23]^,[46].

In the case of Nc1nc(OCc2ccccc2)c2nc[nH]c2n1 [BG, O^6-benzyl-guanine], the IC50 is reported as 36.8 ± 5.6 µM.
